# Measurements published in patent US8791100B2 (Novartis AG, priority 2010, dated 2014).
# Amino acid sequences for entries named in this document (tags omitted).
# UniProt P21453, whole entry: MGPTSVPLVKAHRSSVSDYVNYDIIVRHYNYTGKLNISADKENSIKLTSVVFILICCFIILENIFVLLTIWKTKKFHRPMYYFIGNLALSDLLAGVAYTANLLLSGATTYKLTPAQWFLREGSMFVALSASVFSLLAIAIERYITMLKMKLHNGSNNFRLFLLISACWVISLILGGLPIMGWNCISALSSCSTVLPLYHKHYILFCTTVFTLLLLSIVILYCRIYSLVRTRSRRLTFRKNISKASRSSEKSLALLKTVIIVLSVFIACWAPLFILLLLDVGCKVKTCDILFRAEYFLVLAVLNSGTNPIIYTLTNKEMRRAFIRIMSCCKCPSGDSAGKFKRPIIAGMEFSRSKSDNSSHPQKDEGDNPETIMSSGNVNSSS
# Target: human S1P1 receptors (Homo sapiens (Human), UniProt P21453)
# Test: Human S1P1 Receptor Calcium FLIPR Antagonist Assay (HeLa Gα16 S1P1)
# Settings: relative antagonism vs probing agonist GNF-AC-1 at EC80, HeLa-S1P1/Gα16 cells
compound,measurement,value
CCC(Nc1cccc(CN2CC(C(=O)O)C2)c1C)c1ccc(Cl)c(C)c1 (stereo not shown),IC50,1.2 nM
